Ab-14 heavy chain CDR variants: yeast mating affinities

The measurements come from Li et al. 2023 (doi:10.1038/s41467-023-39022-2) through the FLAb antibody collection.

All variants were tested on one target, the spike HR2 peptide PDVDLGDISGINAS (SARS-CoV-2).

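The parent was found by panning a naive human phage display library on the peptide. The variants were designed computationally from a first round of random CDR variants and then made and measured. Several design methods are mixed in this list. The scFvs were displayed on barcoded MATa yeast, the peptide on MATalpha yeast. Mating (16 h, 30 °C) was followed by selection of diploids and sequencing of their barcodes. Scores were corrected for input abundance and mapped to Kd with protein pairs of known affinity run in the same pool. Mating was done six times.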

Parent scFv Ab-14: VH joined to VL by three GGGGS repeats. Changes lie in the heavy chain CDRs alone.
VH: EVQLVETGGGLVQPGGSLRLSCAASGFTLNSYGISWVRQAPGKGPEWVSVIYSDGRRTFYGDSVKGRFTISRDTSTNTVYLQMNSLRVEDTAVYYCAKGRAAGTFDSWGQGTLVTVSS
VL: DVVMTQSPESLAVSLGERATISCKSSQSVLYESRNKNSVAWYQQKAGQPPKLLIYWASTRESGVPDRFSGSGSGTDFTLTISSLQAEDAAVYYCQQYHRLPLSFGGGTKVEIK

Positions count from residue 1 of the parent VH; F27N puts N in place of F. Variants here have at most six changes. Affinities are written as log10 Kd with Kd in nM; a lower number is a better binder. Where no diploid with the target was found in that replicate, the entry reads "nd": below detection, most likely a poor binder, though not proof of it. The authors' rule: three or more of the six replicates give a measured affinity, fewer mean a poor binder.

The variant F27N/S53A/R100W/G103D gave nd, nd, nd, nd, nd, nd. The variant T28S/S31E/R56K/D62W/A101T gave nd, nd, nd, 2.19, 0.96, 1.42. The variant I51S showed nd, nd, nd, nd, 2.11, nd. The variant G61A/R100Q/S107K gave 1.32, 0.51, 0.89, 1.26, 0.76, 1.17. With N30E/G61D/R100Q/A101K the result was nd, 2.26, 1.66, 2.01, 1.44, 3.80. The variant T28N/S31Q/I34L/G61A/D106R showed nd, nd, nd, nd, nd, nd. With S31E/R56Y/F59M/F105S the result was nd, 1.07, nd, nd, nd, nd.

With S31E/G61S/R100T the result was 0.01, -0.04, -0.10, -0.22, -0.02, 0.03. With R100S/G103T the result was nd, 4.16, nd, nd, nd, nd. With T28E/S31E/R100K/A101T/S107T the result was nd, nd, nd, nd, nd, nd. The variant R56K/A101Q showed 2.16, 1.35, 1.50, 0.98, 0.52, 1.59. The variant T28E/S53A/A101I showed -0.84, 0.12, -0.06, -0.40, -0.43, 0.16. The variant T28D/G61S/A101T/S107A showed -0.09, 0.35, -0.01, -0.44, -0.31, 0.25. The variant S53A/R100W showed 0.88, 1.45, 0.40, 0.45, 0.52, 0.68.

For G26T/Y32H/G61T/A101E/S107G, the assay gave nd, nd, nd, nd, nd, nd. The variant R56K/A102K gave nd, 3.10, 1.65, 2.10, 1.94, nd. With T28S/R100S/A101Q the result was nd, nd, nd, nd, nd, 2.98. The variant T28E/S31E/D106V showed nd, nd, nd, nd, nd, nd. For G103L/S107Y, the assay gave nd, nd, nd, nd, nd, nd. The variant T28D/G61S/T104I showed 0.79, 1.50, 0.26, 0.47, 0.21, 0.28. With S31E/S63R/G103V/S107V the result was nd, nd, nd, nd, nd, nd.

For A101H, the assay gave nd, nd, 1.50, nd, nd, nd. For T28D/S31E/S53A/G61A/R100Q/S107L, the assay gave -0.52, -0.40, -0.57, -0.56, -0.42, -0.07. The variant T28A/G61Q/R100N showed nd, -0.28, nd, 0.42, 0.85, 0.83. The variant G61A/R100A/A101L gave 0.59, 0.35, 0.13, 0.20, 0.20, 0.57. The variant G61D/V64T/K65S/T104Y showed nd, nd, nd, nd, nd, nd. The variant F27T/S107I showed nd, nd, nd, nd, 2.08, nd. The variant T28M/I51H/G61D showed nd, nd, nd, nd, nd, nd.

The variant T28D/S31E/S53A/G61S/R100E/A101I gave -0.58, -0.13, 0.22, -0.45, nd, -0.20. For N30A/F59P/G61Q/R100W/F105K, the assay gave nd, nd, nd, nd, nd, nd. With T28N/R100S/A101Q the result was 0.72, 0.43, 0.46, 0.31, 0.45, 0.68. The variant G26K/T28S/G61C/A101T showed nd, nd, 1.54, 1.64, 1.95, nd. The variant T28S/S31E/R100Q/S107E showed nd, nd, nd, nd, 1.78, nd. The variant T28G/S31E/G61K/R100K/S107T gave 1.33, 1.09, 1.95, 0.38, 1.37, 0.53. The variant T28S/S31E/R100S/S107N gave 0.18, 1.27, nd, -0.55, -0.01, 0.94.

The variant T28S/S31D/G61A/R100K gave 0.24, -0.01, 0.41, 0.56, 0.33, 0.30. The variant S31Q/S107L gave 0.48, 0.87, 0.65, 1.00, 0.68, 0.53. For T28S/S31E/R100K/A101E/S107T, the assay gave -0.06, 0.31, -0.19, -0.57, -0.33, 0.00. For N30D/R56T/F59W/F105A/D106L/S107M, the assay gave nd, nd, nd, nd, nd, nd. With S53A/R100Q/A101V the result was 0.37, 0.23, 0.32, -0.38, 0.14, 0.24. The variant G26K/R100Q/A101L gave nd, nd, nd, 1.55, nd, nd. For T28N/S63Q/R100K/A101L, the assay gave nd, nd, nd, 1.56, 0.83, nd.

The variant T28D/G61Q/S63K/R100K showed nd, nd, nd, 0.93, nd, nd. For R56V/F59Q/R100Q, the assay gave nd, nd, 1.52, 2.31, nd, 1.55. The variant N30D/V64H/A101P/A102I/F105A/D106L gave nd, nd, nd, nd, nd, nd. The variant S53A/A101D/G103S/F105N/D106K gave nd, nd, nd, nd, nd, nd. For G26K/S31E/G61T/A102T, the assay gave nd, nd, nd, nd, nd, nd. With S31E/R56K/A101N the result was 0.29, -0.54, -0.17, -0.29, -0.46, -0.31. With G61K/S107N the result was nd, nd, 0.94, nd, nd, 2.04.

For T28S/S53A/G61Q/R100E, the assay gave -0.49, -0.49, -0.41, -0.66, -0.55, -0.12. For L29W/S31E/Y60K/G61T/D62C/A101F, the assay gave nd, nd, nd, nd, nd, nd.

The opening 7 entries, copied out:

{"changes": "F27N/S53A/R100W/G103D", "replicates, log10 nM": "nd, nd, nd, nd, nd, nd"}
{"changes": "T28S/S31E/R56K/D62W/A101T", "replicates, log10 nM": "nd, nd, nd, 2.19, 0.96, 1.42"}
{"changes": "I51S", "replicates, log10 nM": "nd, nd, nd, nd, 2.11, nd"}
{"changes": "G61A/R100Q/S107K", "replicates, log10 nM": "1.32, 0.51, 0.89, 1.26, 0.76, 1.17"}
{"changes": "N30E/G61D/R100Q/A101K", "replicates, log10 nM": "nd, 2.26, 1.66, 2.01, 1.44, 3.80"}
{"changes": "T28N/S31Q/I34L/G61A/D106R", "replicates, log10 nM": "nd, nd, nd, nd, nd, nd"}
{"changes": "S31E/R56Y/F59M/F105S", "replicates, log10 nM": "nd, 1.07, nd, nd, nd, nd"}

Values of this round are not directly comparable with the first-round values of the same sequences. Empty control strains, which show no peptide, gave a signal in 1% of pairings with all heavy chain designs; the median was 2.08 and 95% of these signals were weaker than 0.84. No background was subtracted.